Test: in vitro
Conditions: for microsomal CLint at 3 μM: both, microsomes, pH 7.4; for T1/2 (min) HLM: human liver microsomes; for T1/2 (min) HLM / T1/2 (min) RLM: 3 μM, 0.5 mg/mL protein; for T1/2 (min) RLM: rat liver microsomes
Description: Human and Rat Liver Microsomal Stability Assay
The metabolic stability of the compounds of the Formula (I) was measured by determination of the rate of compound disappearance when incubated in the presence of both human and rat liver microsomes. Liver microsomes are prepared from the endoplasmic reticulum of hepatocytes and are the primary source of the most important enzymes (cytochrome P450) involved in drug metabolism. Study of drug stability in the presence of liver microsomes is accepted as a valuable model permitting rapid prediction of in vivo drug stability.
Human and rat liver microsomes were obtained from a commercial source. Test compounds (3 μM) were incubated with pooled liver microsomes (male and female). Samples were incubated for a 45 minute period and removed at 5 time points and test compounds were analysed by LC-MS/MS.
The final incubation volume was 25 μL. A control incubation was included for each compound tested, where 0.1 M phosphate buffer pH 7.4 was added instead of NADPH. The control compounds testosterone and 7-hydroxycoumarin were included in each experiment and all incubations were performed singularly for each compound.
Each compound was incubated for 0, 5, 15, 30, and 45 minutes. The control (minus NADPH) was incubated for 45 minutes only. The reactions were stopped by the addition of 50 μL methanol containing internal standard at the appropriate time points. The incubation plates were centrifuged at 2500 rpm for 20 minutes at 4° C. to precipitate the protein.
Following protein precipitation, the sample supernatants were combined in cassettes of up to 4 compounds and analysed using standard LC-MS/MS conditions.
From a plot of the natural logarithm of the peak area ratio (i.e., the ratio of compound peak area:internal standard peak area) against time, the gradient of the line was determined. Subsequently, half-life and intrinsic clearance were calculated using the equations below: Eliminated Rate Constant (k)=(−Gradient).

| SMILES | microsomal CLint at 3 μM (human) [µL/min/mg] | microsomal CLint at 3 μM (rat) [µL/min/mg] | T1/2 (min) HLM [min] | T1/2 (min) RLM [min] |
| --- | --- | --- | --- | --- |
| FC(F)(F)CC(c1cccs1)c1c(-c2ccccc2)[nH]c2cc(Cl)ccc12 (centres unmarked) [ABD1217, 6-Chloro-2-phenyl-3-(3,3,3-trifluoro-1-(thiophen-2-yl)propyl)-1H-indole] | 8.8 | 25.5 | 157 | 54.3 |
| O=C(C(c1ccccc1)c1c(-c2ccccc2)[nH]c2ccccc12)C(F)(F)F (centres unmarked) [ABD1139, 1,1,1-Trifluoro-3-phenyl-3-(2-phenyl-1H-indol-3-yl)propan-2-one] | 27.1 | 33.5 | 51.1 | 41.4 |
| Cc1ccc2c(C(CC3CC3)CC(F)(F)F)c(-c3ccccc3)[nH]c2c1 (centres unmarked) [ABD1156, 3-(1-Cyclopropyl-4,4,4-trifluorobutan-2-yl)-6-methyl-2-phenyl-1H-indole] | 18.6 | 70.1 | 74.4 | 19.8 |
| Cc1ccc2c(C(c3ccccc3)C(C#N)C#N)c(-c3ccccc3)[nH]c2c1 (centres unmarked) [ABD1133, 2-((6-Methyl-2-phenyl-1H-indol-3-yl)(phenyl)methyl)malononitrile] | 35.2 | 112 | 39.3 | 12.4 |
| FC(F)(F)CC(c1ccccc1)c1c(-c2ccccc2)[nH]c2cc(Cl)ccc12 (centres unmarked) [ABD1218, 6-Chloro-2-phenyl-3-(3,3,3-trifluoro-1-phenylpropyl)-1H-indole] | 14.1 | 17.8 | 98.6 | 78.0 |
| Cc1ccc2c(C(CC(F)(F)F)c3ccccc3)c(-c3ccccc3)[nH]c2c1 (centres unmarked) [ABD1145, 6-Methyl-2-phenyl-3-(3,3,3-trifluoro-1-phenylpropyl)-1H-indole] |  | 49.2 |  | 28.2 |
| N#CCC(c1ccccc1)c1c(-c2ccccc2)[nH]c2ccccc12 (centres unmarked) [ABD1102, 3-Phenyl-3-(2-phenyl-1H-indol-3-yl)propanenitrile] | 32.4 | 95.4 | 42.7 | 14.5 |
| FC(F)(F)CC(c1ccco1)c1c(-c2ccccc2)[nH]c2cc(Cl)ccc12 (centres unmarked) [ABD1216, 6-Chloro-2-phenyl-3-(3,3,3-trifluoro-1-(furan-2-yl)propyl)-1H-indole] | 21.7 | 29.9 | 63.9 | 46.3 |
| Cc1ccc2c(C(CC#N)c3ccccc3)c(-c3ccccc3)[nH]c2c1 (centres unmarked) [ABD1132, 3-(6-Methyl-2-phenyl-1H-indol-3-yl)-3-phenylpropanenitrile] | 30.3 | 74 | 45.7 | 18.7 |
| FC(F)(F)CC(c1ccccc1)c1c(-c2ccccc2)[nH]c2ccccc12 (centres unmarked) [ABD1137, 2-Phenyl-3-(3,3,3-trifluoro-1-phenylpropyl)-1H-indole] | 16.3 | 34 | 85.2 | 40.7 |
| Cc1ccc2c(C(CC(F)(F)F)c3ccco3)c(-c3ccccc3)[nH]c2c1 (centres unmarked) [ABD1188, 6-Methyl-2-phenyl-3-(3,3,3-trifluoro-1-(furan-2-yl)propyl)-1H-indole] | 23.4 | 134 | 59.1 | 10.3 |
| Cc1ccc2c(C(C(=O)C(F)(F)F)c3ccccc3)c(-c3ccccc3)[nH]c2c1 (centres unmarked) [ABD1146, 1,1,1-Trifluoro-3-(6-methyl-2-phenyl-1H-indol-3-yl)-3-phenylpropan-2-one] | 5.2 | 55.8 | 267 | 24.8 |
| N#CC(C#N)C(c1ccccc1)c1c(-c2ccccc2)[nH]c2ccccc12 (centres unmarked) [ABD1100, 2-(Phenyl(2-phenyl-1H-indol-3-yl)methyl)malononitrile] | 52.9 | 93.7 | 26.2 | 14.8 |
| Cc1ccc2c(C(CC(F)(F)F)c3cccs3)c(-c3ccccc3)[nH]c2c1 (centres unmarked) [ABD1187, 6-Methyl-2-phenyl-3-(3,3,3-trifluoro-1-(thiophen-2-yl)propyl)-1H-indole] |  | 79.3 | 108 | 17.5 |

Reference: patent publication US10377711B2, “Cannabinoid type 1 receptor modulators” (priority 2014, dated 2019)
